# Apparent affinities of Ab-14 variants for a coronavirus HR2 peptide

Values reported by Li et al. 2023, doi:10.1038/s41467-023-39022-2 (FLAb copy).

The target is the same throughout: PDVDLGDISGINAS, from the HR2 region of SARS-CoV-2 spike.

Parent scFv Ab-14: VH joined to VL by the linker GGGGSGGGGSGGGGS. Changes lie in the heavy chain CDRs alone.
VH: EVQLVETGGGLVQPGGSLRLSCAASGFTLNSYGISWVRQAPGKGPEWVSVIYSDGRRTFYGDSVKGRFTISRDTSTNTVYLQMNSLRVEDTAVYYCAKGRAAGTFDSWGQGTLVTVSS
VL: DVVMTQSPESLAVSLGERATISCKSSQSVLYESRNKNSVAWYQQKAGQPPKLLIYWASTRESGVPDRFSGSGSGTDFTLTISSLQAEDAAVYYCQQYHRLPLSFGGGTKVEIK

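The starting antibody came from a phage panning campaign against this peptide. These sequences belong to a second round, designed from the earlier measurements on random variants of the parent. Group labels follow the data file (Ctrl: baseline library sampled from a position-specific scoring matrix, with some repeated check sequences; GPLM: also part of the Gaussian process libraries; HC: hill climbing; Gen: genetic algorithm; a sequence that several methods proposed may carry one label only). In AlphaSeq, yeast of one mating type display the scFv and yeast of the other type display the target. Mating (16 h, 30 °C) was followed by selection of diploids and sequencing of their barcodes. Each replicate has its own calibration line, from reference interactions of the BCL2 family. Mating was done six times.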

Positions count from residue 1 of the parent VH; T28D puts D in place of T.
Numbers give log10(Kd / nM), so 0 is 1 nM and 3 is 1 µM. Smaller is tighter.
"n.d." means that the variant was in the library but no mating with the target was seen in that replicate; the authors take this as a sign of poor binding, and no number exists.
Some sequences occur more than once in the pool; their replicates are listed entry by entry, parted by semicolons.
The parent sequence was in this pool as ten entries: three were never detected, three once, and four in most replicates, with averages from 0.34 to 2.37.
The authors averaged sequences with at least three values out of six and counted those with two or fewer as poor binders.
Values of this round are not directly comparable with the first-round values of the same sequences.
Three control strains display no target. For all heavy chain designs, 1% of the pairings with them gave a signal, with a median of 2.08 and one signal in twenty below 0.84, so weak values seen in few replicates may be background. Also given: how often the same scFv was detected with the empty control strains, with their mean in brackets.

| # | changes | group | log10 Kd (nM) by replicate | empty controls |
|---|---|---|---|---|
| 1 | T28D F105S D106I | Ctrl | n.d. / n.d. / n.d. / 1.86 / n.d. / n.d. | 1/18 (2.77) |
| 2 | G61H A102V | Ctrl | n.d. / n.d. / n.d. / n.d. / n.d. / n.d. | 0/18 |
| 3 | T28W R100N | Ctrl | n.d. / n.d. / n.d. / 3.76 / n.d. / n.d. | 0/18 |
| 4 | T28E I34G S53A R100M A101V S107L | Ctrl | n.d. / n.d. / n.d. / n.d. / n.d. / n.d. | 0/18 |
| 5 | N30E R100D A101M F105S D106T | Ctrl | n.d. / n.d. / n.d. / n.d. / n.d. / n.d. | 0/18 |
| 6 | R56C S63A | Ctrl | n.d. / n.d. / n.d. / n.d. / n.d. / n.d. | 0/18 |
| 7 | A102K S107T | Ctrl | 1.86 / 0.91 / 0.57 / 0.63 / 0.90 / 1.26 | 0/18 |
| 8 | S31E R100S D106N | Ctrl | 0.15 / 0.71 / 1.04 / 0.21 / 0.20 / 0.58 | 1/18 (1.32) |
| 9 | S63N S107I | Ctrl | n.d. / n.d. / n.d. / 2.15 / 2.33 / 2.28 | 0/18 |
| 10 | T28D G61S S63N G103F | Ctrl | n.d. / n.d. / n.d. / n.d. / n.d. / n.d. | 1/18 (1.75) |
| 11 | G61S S107V | Ctrl | 0.56 / 0.49 / 0.93 / 0.19 / 0.65 / 0.90 | 0/18 |
| 12 | F59M G103D | Ctrl | n.d. / n.d. / 2.18 / n.d. / n.d. / n.d. | 0/18 |
| 13 | S31N G61H | Ctrl | n.d. / 0.99 / 2.41 / 0.87 / n.d. / n.d. | 1/18 (0.77) |
| 14 | F59S S63D G99N A102P G103A | Ctrl | n.d. / n.d. / n.d. / n.d. / n.d. / n.d. | 1/18 (2.05) |
| 15 | A101V A102E | Ctrl | n.d. / n.d. / n.d. / n.d. / n.d. / n.d. | 0/18 |
| 16 | T28W L29I G61D R100M | Ctrl | 1.29 / n.d. / n.d. / 2.26 / n.d. / n.d. | 0/18 |
| 17 | N30D G61N G99D A102V | Ctrl | n.d. / n.d. / n.d. / n.d. / n.d. / n.d. | 0/18 |
| 18 | S31D G61S R100D | Ctrl | 0.10 / 0.48 / 0.15 / 0.90 / -0.23 / 0.69 | 1/18 (1.73) |
| 19 | L29P S31D F105K | Ctrl | n.d. / n.d. / n.d. / n.d. / n.d. / n.d. | 0/18 |
| 20 | F27L G103Q | Ctrl | n.d. / n.d. / n.d. / n.d. / n.d. / n.d. | 0/18 |
| 21 | S31E G61S K65R G103L T104Q | Ctrl | n.d. / n.d. / n.d. / n.d. / 2.87 / n.d. | 0/18 |
| 22 | N30D F59A G61H G103H T104L | Ctrl | n.d. / n.d. / n.d. / n.d. / n.d. / n.d. | 0/18 |
| 23 | S31N G61E R100L | Ctrl | n.d. / n.d. / n.d. / n.d. / n.d. / n.d. | 0/18 |
| 24 | F105A | Ctrl | n.d. / n.d. / n.d. / n.d. / n.d. / n.d. | 0/18 |
| 25 | S35Q T58V F59A G61S R100K | Ctrl | n.d. / n.d. / n.d. / 0.86 / n.d. / n.d. | 0/18 |
| 26 | S31G D106N | Ctrl | n.d. / n.d. / n.d. / n.d. / n.d. / n.d. | 0/18 |
| 27 | N30E T58V G61N | Ctrl | n.d. / 2.16 / 1.35 / 1.44 / 1.86 / 1.73 | 0/18 |
| 28 | R56K S63D | Ctrl | 1.46 / 1.90 / n.d. / 1.45 / n.d. / 2.18 | 1/18 (1.65) |
| 29 | S107P | Ctrl | n.d. / n.d. / n.d. / n.d. / n.d. / n.d. | 0/18 |
| 30 | N30E D106L | Ctrl | n.d. / n.d. / n.d. / n.d. / n.d. / n.d. | 0/18 |
| 31 | N30F S53A G61Q F105T | Ctrl | n.d. / n.d. / n.d. / n.d. / n.d. / 2.08 | 0/18 |
| 32 | S31E R100Q G103A | Ctrl | n.d. / n.d. / n.d. / n.d. / n.d. / n.d. | 0/18 |
| 33 | G61S | Ctrl+GPLM_HC | 0.94 / 1.21 / 0.75 / 0.92 / 1.12 / 0.48; 0.93 / 0.35 / 0.89 / 0.43 / 0.30 / 1.33 | 0/36 |
| 34 | G26K F27Q A101H | Ctrl | n.d. / n.d. / n.d. / n.d. / n.d. / n.d. | 0/18 |
| 35 | F59S T104E | Ctrl | n.d. / n.d. / n.d. / n.d. / n.d. / n.d. | 0/18 |
| 36 | F27I T104M F105V D106S S107T | Ctrl | n.d. / n.d. / n.d. / n.d. / n.d. / n.d. | 0/18 |
| 37 | T28H T104L | Ctrl | n.d. / n.d. / n.d. / n.d. / n.d. / n.d. | 1/18 (1.75) |
| 38 | G61S D62E S63K R100D | Ctrl | n.d. / 2.65 / 1.57 / 1.70 / n.d. / n.d. | 0/18 |
| 39 | S31E S107K | Ctrl+GPLM_Gen | n.d. / n.d. / n.d. / n.d. / n.d. / n.d.; 1.03 / 0.89 / 0.52 / 0.71 / 0.62 / 0.68 | 1/36 (2.09) |
| 40 | G61T R100K D106H | Ctrl | n.d. / n.d. / n.d. / n.d. / n.d. / n.d. | 0/18 |
| 41 | Y60M A102E | Ctrl | n.d. / n.d. / n.d. / n.d. / n.d. / n.d. | 0/18 |
| 42 | L29A R100N S107T | Ctrl | n.d. / n.d. / 1.74 / n.d. / n.d. / 1.08 | 0/18 |
| 43 | S31E R100K G103W | Ctrl | n.d. / n.d. / n.d. / n.d. / n.d. / n.d. | 0/18 |
| 44 | R56C G61I D62G A101I | Ctrl | n.d. / n.d. / n.d. / n.d. / n.d. / n.d. | 1/18 (2.00) |
| 45 | F27E S31E G99T D106R | Ctrl | n.d. / n.d. / n.d. / n.d. / n.d. / n.d. | 0/18 |
| 46 | N30D S31D A101C T104C | Ctrl | n.d. / n.d. / n.d. / n.d. / n.d. / n.d. | 0/18 |
| 47 | T28D A102E | Ctrl | n.d. / n.d. / n.d. / n.d. / n.d. / n.d. | 0/18 |
| 48 | N30T K65R G99C A101R | Ctrl | n.d. / n.d. / n.d. / n.d. / n.d. / n.d. | 0/18 |

Extract of 7 entries:

{"changes": "T28D G61S S63N G103F", "group": "Ctrl", "log10 Kd (nM) by replicate": "n.d. / n.d. / n.d. / n.d. / n.d. / n.d.", "empty controls": "1/18 (1.75)"}
{"changes": "G61H A102V", "group": "Ctrl", "log10 Kd (nM) by replicate": "n.d. / n.d. / n.d. / n.d. / n.d. / n.d.", "empty controls": "0/18"}
{"changes": "A102K S107T", "group": "Ctrl", "log10 Kd (nM) by replicate": "1.86 / 0.91 / 0.57 / 0.63 / 0.90 / 1.26", "empty controls": "0/18"}
{"changes": "T28W L29I G61D R100M", "group": "Ctrl", "log10 Kd (nM) by replicate": "1.29 / n.d. / n.d. / 2.26 / n.d. / n.d.", "empty controls": "0/18"}
{"changes": "S31E G61S K65R G103L T104Q", "group": "Ctrl", "log10 Kd (nM) by replicate": "n.d. / n.d. / n.d. / n.d. / 2.87 / n.d.", "empty controls": "0/18"}
{"changes": "S31E S107K", "group": "Ctrl+GPLM_Gen", "log10 Kd (nM) by replicate": "n.d. / n.d. / n.d. / n.d. / n.d. / n.d.; 1.03 / 0.89 / 0.52 / 0.71 / 0.62 / 0.68", "empty controls": "1/36 (2.09)"}
{"changes": "S63N S107I", "group": "Ctrl", "log10 Kd (nM) by replicate": "n.d. / n.d. / n.d. / 2.15 / 2.33 / 2.28", "empty controls": "0/18"}